A short description of the series: physchem.

Structures are written as SMILES.

`NC(CO)(CO)CO` [TA, 2-amino-2-(hydroxymethyl)propane-1,3-diol] showed a pKa of 8.3.

What is called pKa is the pH at which an ionisable group is half protonated.

The values are drawn from patent US9708557B2, “Process for the treatment of liquefied hydrocarbon gas using 2-amino-2(hydroxymethyl) propane-1,3-diol compounds” (Dow Global Technologies LLC, priority 2012, dated 2017).
